Measured values published in patent publication US20230414506A1, “PEPTIDE FORMULATIONS AND METHODS OF USE” (REALTA LIFE SCIENCES, INC., priority 2020, published 2023).

Conditions: 2 mg/ml in 20% Intralipid, upon centrifugation

## IALILEPICCQERAA [PA]
  PA associated with the lipid layer: 60%
  PA remained in the aqueous phase: 40%
